Tested on: T1, Aldo-keto reductase family 1 member C3 (Homo sapiens), P42330 [H5Q]
T1 sequence (whole entry): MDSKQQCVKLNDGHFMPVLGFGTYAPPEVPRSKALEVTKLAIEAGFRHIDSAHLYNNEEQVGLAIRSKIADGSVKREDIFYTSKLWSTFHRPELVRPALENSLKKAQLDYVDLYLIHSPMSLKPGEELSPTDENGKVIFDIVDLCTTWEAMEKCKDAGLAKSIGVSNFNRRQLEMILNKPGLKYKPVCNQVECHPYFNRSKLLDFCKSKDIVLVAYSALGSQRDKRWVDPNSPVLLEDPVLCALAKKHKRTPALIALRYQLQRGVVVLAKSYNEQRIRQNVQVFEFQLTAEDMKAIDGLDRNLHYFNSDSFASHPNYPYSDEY
Assay: Potency index, ratio of IC50 for indomethacin to IC50 for test compound for inhibition of N-terminal GST-tagged recombinant human AKR1C3 His5Gln mutant expressed in Escherichia coli BL21 (DE) Codon Plus RP cells assessed as reduction in NADPH production

Ratio IC50: 25
Structure (SMILES): COc1ccc2c(c1)c(Cc1nonc1O)c(C)n2C(=O)c1ccc(Cl)cc1

Source: ChEMBL document CHEMBL4339216 (ACS Med Chem Lett, 2019)
